The values that follow come from article PMC10823479 (Journal of Medicinal Chemistry, 2024).

By UniProt entry, the sequences of proteins in these tests, tags left out. Where a name states a change or a piece, a line headed by the entry shows the natural chain unless it says otherwise.
UniProt P20272, whole entry: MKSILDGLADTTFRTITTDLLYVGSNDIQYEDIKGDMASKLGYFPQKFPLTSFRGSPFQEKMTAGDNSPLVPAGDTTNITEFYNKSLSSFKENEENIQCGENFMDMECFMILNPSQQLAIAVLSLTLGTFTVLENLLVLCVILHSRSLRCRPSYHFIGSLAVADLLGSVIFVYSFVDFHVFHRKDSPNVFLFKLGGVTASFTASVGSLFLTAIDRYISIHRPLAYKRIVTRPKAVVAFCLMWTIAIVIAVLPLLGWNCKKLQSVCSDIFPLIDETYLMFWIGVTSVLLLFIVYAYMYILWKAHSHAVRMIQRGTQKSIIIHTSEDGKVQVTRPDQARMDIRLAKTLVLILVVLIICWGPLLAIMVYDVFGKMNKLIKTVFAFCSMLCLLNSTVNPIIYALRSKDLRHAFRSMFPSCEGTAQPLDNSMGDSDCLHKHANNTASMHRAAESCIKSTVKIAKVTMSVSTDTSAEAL
UniProt P50406, whole entry: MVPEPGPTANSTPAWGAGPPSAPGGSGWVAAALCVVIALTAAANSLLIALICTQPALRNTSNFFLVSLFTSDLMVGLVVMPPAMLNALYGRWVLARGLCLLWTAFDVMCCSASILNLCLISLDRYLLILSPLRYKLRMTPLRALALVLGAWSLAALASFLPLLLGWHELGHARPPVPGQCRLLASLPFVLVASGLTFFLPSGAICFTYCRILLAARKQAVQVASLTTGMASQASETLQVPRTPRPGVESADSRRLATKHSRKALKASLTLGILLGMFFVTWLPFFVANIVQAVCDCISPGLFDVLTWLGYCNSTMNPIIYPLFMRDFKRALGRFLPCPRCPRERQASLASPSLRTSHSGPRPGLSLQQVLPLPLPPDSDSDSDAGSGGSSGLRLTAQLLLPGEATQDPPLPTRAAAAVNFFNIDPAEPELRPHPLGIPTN
UniProt Q9Y5N1: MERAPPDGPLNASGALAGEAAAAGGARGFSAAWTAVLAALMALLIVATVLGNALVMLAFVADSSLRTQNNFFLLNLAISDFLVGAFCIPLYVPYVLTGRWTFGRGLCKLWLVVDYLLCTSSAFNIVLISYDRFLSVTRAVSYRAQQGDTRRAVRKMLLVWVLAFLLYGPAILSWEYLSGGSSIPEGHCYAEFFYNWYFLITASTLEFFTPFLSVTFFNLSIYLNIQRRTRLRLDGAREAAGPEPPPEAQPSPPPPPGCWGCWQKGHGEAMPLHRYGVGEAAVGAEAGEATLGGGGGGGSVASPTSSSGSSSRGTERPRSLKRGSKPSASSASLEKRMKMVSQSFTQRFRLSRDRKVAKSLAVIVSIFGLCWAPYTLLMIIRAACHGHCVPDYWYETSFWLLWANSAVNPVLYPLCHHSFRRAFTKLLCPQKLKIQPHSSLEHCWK

Molecules are shown by their SMILES.

A short description of one series: in vitro. As to conditions: rat, microsomes.
The next series deals with cannabinoid CB1 (Rattus norvegicus, UniProt P20272). In words: biochemical. As to conditions: read-out: % of control specific binding, CB1.
For another series, the target named is 5-HT6R (Homo sapiens, UniProt P50406). As to conditions: read-out: Ki 5-HT6R; cited from earlier work.
Series [1] has as its target human histamine H3 receptor (Homo sapiens, UniProt Q9Y5N1). In words: biochemical. As to conditions: read-out: % of control specific binding, H3.
A further series relates to rats. As to conditions: rat, in vivo.

`CC([Se]c1ccc2ccccc2c1)c1nc(N)nc(N2CCN(C)CC2)n1` (centres unmarked) gave a share remaining at 2 h in the series “in vitro” of 53.3%.
Consider `CCC([Se]c1ccc2ccccc2c1)c1nc(N)nc(N2CCN(C)CC2)n1` (centres unmarked), for which the share remaining at 2 h in “in vitro” is 77.6%.
Consider `Cc1c(C(=O)NN2CCCCC2)nn(-c2ccc(Cl)cc2Cl)c1-c1ccc(I)cc1` [AM251], for which the inhibition at 1 µM at cannabinoid CB1 was found to be 100%.
For the compound `CC(C)CS(=O)(=O)n1ccc2c(-c3ccc(C(F)(F)F)cc3)cc(N3CCN(C)CC3)nc21` [A], at 5-HT6R, the Ki is 0.052 µM.
As to `CCS(=O)(=O)c1nc(S(=O)(=O)c2ccc(Cl)cc2)c(N2CCc3ccccc3C2)s1` [E], the Ki at 5-HT6R is 0.119 µM.
On to `NC(=O)NCC1CCCc2cc(S(=O)(=O)c3ccccc3)ccc21` (centres unmarked) [F], for which, at 5-HT6R, the inhibition constant Ki is 0.00063 µM.
In the case of `CN1CCN(c2nc(N)nc(-c3ccc(Cl)cc3)n2)CC1` [III], at 5-HT6R, the Ki is 2.71 µM.
On to `CN1CCN(c2nc(N)nc(COc3ccccc3)n2)CC1` [IV], for which the inhibition constant Ki at 5-HT6R was 0.507 µM.
Regarding `CN1CCN(c2nc(N)nc(Cc3ccc(Cl)cc3)n2)CC1` [I], the inhibition constant (Ki) on 5-HT6R is 0.052 µM.
Regarding `Clc1ccc(CCCOCCCN2CCCCC2)cc1` [Pitolisant], the inhibition at 1 µM in series [1] is 71%.
Take `COc1cc2c(cc1OC)C(=O)C(CC1CCN(Cc3ccccc3)CC1)C2` (centres unmarked) [donepezil]: in the series with rats, the “reversal of MK-801-induced memory impairment, discrimination index (DI)” value is recorded as “statistically significant level was reached”.
